Target: T1, COX-2 (Mus musculus, UniProt Q05769)
T1 construct: host or cells: RAW 264.7 cells, pre-treated with aspirin and induced with interferon and LPS
T1 sequence (Q05769 18-604): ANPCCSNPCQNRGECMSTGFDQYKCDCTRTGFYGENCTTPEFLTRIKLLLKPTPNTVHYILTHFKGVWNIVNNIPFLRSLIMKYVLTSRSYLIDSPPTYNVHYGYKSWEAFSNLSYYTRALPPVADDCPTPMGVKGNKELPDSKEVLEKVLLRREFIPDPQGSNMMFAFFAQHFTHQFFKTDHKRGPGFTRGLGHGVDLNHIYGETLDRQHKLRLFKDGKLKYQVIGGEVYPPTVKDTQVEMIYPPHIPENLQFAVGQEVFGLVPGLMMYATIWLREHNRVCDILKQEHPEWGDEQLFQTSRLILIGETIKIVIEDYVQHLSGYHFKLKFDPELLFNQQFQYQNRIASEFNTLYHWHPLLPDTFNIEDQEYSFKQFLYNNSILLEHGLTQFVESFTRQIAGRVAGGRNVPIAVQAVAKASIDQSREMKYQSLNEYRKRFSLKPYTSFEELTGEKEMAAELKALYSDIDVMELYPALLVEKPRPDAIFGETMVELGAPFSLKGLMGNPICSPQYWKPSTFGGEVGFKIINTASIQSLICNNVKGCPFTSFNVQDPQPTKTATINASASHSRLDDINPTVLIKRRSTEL
Experiment: Assay for the COX-2 inhibitory activity using RAW 264.7 cell line (PGE2, EIA)
Assay type: cell-based
Conditions: RAW264.7, 10 nM test compound, RAW 264.7 cells, aspirin pre-treated, interferon + LPS 18 hours, read-out: Cyclooxygenase (COX) Inhibition (%) COX-2 (10 nM)
Experimental: Each well was treated with 250 μM of aspirin and incubated at 37° C. for 2 hours. After the culture media were replaced with new culture media, the new culture media were treated with a test compound (10 nM) and incubated for 30 minutes. Then, each well was treated with interferon ? (100 units/ml) and lipopolysaccharide (LPS, 100 ng/ml) and incubated for 18 hours. The culture media were transferred to other test tubes. The concentration of PGE2 was quantified by means of the EIA kit (Cayman Chemicals).
The percentages of the COX inhibition were calculated according to the following equation: [formula]

## Cc1onc(-c2ccccc2)c1-c1ccc(S(N)(=O)=O)cc1 [Reference (Valdecoxib), Valdecoxib, reference compound]
  inhibition at 0.01 µM: 60.2%

From patent publication US6727268B2, “2-thioxothiazole derivative, method for preparing the same, and pharmaceutical composition containing the same” (CJ Corp., priority 2002, dated 2004)
